## Measured affinities in a library of Ab-14 light chain variants

From the AlphaSeq antibody data of Engelhart et al. 2022 (doi:10.1038/s41597-022-01779-4), copy in the FLAb collection.

Target peptide (SARS-CoV-2 spike, HR2 region): PDVDLGDISGINAS

Parent: Ab-14, a human scFv built as VH, the linker GGGGSGGGGSGGGGS, VL. Only the CDRs of the light chain vary.
VH: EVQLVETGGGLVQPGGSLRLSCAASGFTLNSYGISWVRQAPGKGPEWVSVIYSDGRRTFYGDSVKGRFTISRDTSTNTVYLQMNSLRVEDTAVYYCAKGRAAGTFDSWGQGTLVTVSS
VL: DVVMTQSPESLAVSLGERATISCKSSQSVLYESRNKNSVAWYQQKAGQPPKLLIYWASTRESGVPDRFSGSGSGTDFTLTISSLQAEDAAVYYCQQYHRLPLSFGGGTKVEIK

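The starting antibody came from a phage panning campaign against this peptide. Library AAYL50 holds single substitutions and randomly drawn double and triple substitutions in the CDRs. The assay is AlphaSeq: two haploid yeast populations carry antibody and antigen on their surface. Pairs that bind mate more often; barcode pairs of the diploids are counted by sequencing. Read counts were normalised to the haploid input and turned into Kd by a linear fit to BCL2-family pairs of known affinity, for each replicate. There are three technical replicates.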

Changes read parent residue, position, new residue, counted from the first residue of the VL shown. Affinities are written as log10 Kd with Kd in nM; a lower number is a better binder. A mean of the replicates is given; it leaves out those without a signal. "nd" means that the variant was in the library but no mating with the target was seen in that replicate; the authors take this as a sign of poor binding, and no number exists. In this assay the parent's reference entry averaged 0.65; its copy inside this library read 1.68. Nonspecific signal, from three strains lacking the peptide, appeared in 18% of pairings of library AAYL50, centred on 4.19 (5% of these signals below 2.99); values are not corrected for it. Also given: how often the same scFv was detected with the empty control strains, with their mean in brackets.

{"changes": "S28I/S38Y/S62L", "replicates, log10 nM": "nd / 3.34 / 4.12", "mean, log10 nM": "3.73", "control signals": "0/9"}
{"changes": "H98W", "replicates, log10 nM": "0.79 / 1.01 / 0.94", "mean, log10 nM": "0.91", "control signals": "0/9"}
{"changes": "S25W/L30A/Y97N", "replicates, log10 nM": "nd / nd / 2.26", "mean, log10 nM": "2.26", "control signals": "0/9"}
{"changes": "S25N/W56G/R99M", "replicates, log10 nM": "-0.52 / -0.17 / -0.54", "mean, log10 nM": "-0.41", "control signals": "5/9 (4.39)"}
{"changes": "K36I/S38N/S103L", "replicates, log10 nM": "0.63 / 0.79 / 0.76", "mean, log10 nM": "0.73", "control signals": "3/9 (4.73)"}
{"changes": "Q27L/L100K/P101H", "replicates, log10 nM": "3.30 / 3.73 / 3.01", "mean, log10 nM": "3.34", "control signals": "2/9 (4.18)"}
{"changes": "N35H/H98A/P101N", "replicates, log10 nM": "1.23 / 1.55 / 1.46", "mean, log10 nM": "1.41", "control signals": "6/9 (4.98)"}
{"changes": "N37D/Y97L/P101L", "replicates, log10 nM": "nd / nd / nd", "mean, log10 nM": "nd", "control signals": "0/9"}
{"changes": "N35H/Q95H/R99E", "replicates, log10 nM": "1.14 / 1.31 / 1.56", "mean, log10 nM": "1.34", "control signals": "0/9"}
{"changes": "S28E/Y31N/A40D", "replicates, log10 nM": "nd / nd / nd", "mean, log10 nM": "nd", "control signals": "4/9 (4.08)"}
{"changes": "Q27N/T59I/S103Y", "replicates, log10 nM": "1.02 / 1.20 / 1.13", "mean, log10 nM": "1.12", "control signals": "6/9 (4.84)"}
{"changes": "Q27W/S28G/V29T", "replicates, log10 nM": "0.53 / 0.73 / 0.64", "mean, log10 nM": "0.63", "control signals": "5/9 (4.86)"}
{"changes": "E61Y/R99V/L102C", "replicates, log10 nM": "nd / nd / nd", "mean, log10 nM": "nd", "control signals": "0/9"}
{"changes": "S26L/L30H", "replicates, log10 nM": "nd / nd / nd", "mean, log10 nM": "nd", "control signals": "0/9"}
{"changes": "E61L/Q96A/R99C", "replicates, log10 nM": "3.07 / nd / nd", "mean, log10 nM": "3.07", "control signals": "1/9 (3.63)"}
{"changes": "Q27K/V29D/Y31L", "replicates, log10 nM": "0.38 / 0.68 / 0.60", "mean, log10 nM": "0.55", "control signals": "4/9 (4.73)"}
{"changes": "W56V/Y97M", "replicates, log10 nM": "nd / nd / nd", "mean, log10 nM": "nd", "control signals": "2/9 (3.86)"}
{"changes": "R34P/S38M/S103Q", "replicates, log10 nM": "1.63 / 1.82 / 1.91", "mean, log10 nM": "1.79", "control signals": "0/9"}
{"changes": "K24P/S38M/E61K", "replicates, log10 nM": "nd / nd / nd", "mean, log10 nM": "nd", "control signals": "1/9 (4.03)"}
{"changes": "S28W/N37F/V39W", "replicates, log10 nM": "nd / nd / nd", "mean, log10 nM": "nd", "control signals": "2/9 (3.56)"}
{"changes": "E32C/A57M/S58Q", "replicates, log10 nM": "nd / nd / nd", "mean, log10 nM": "nd", "control signals": "0/9"}
{"changes": "N35H/W56M/Q95H", "replicates, log10 nM": "5.60 / 4.00 / nd", "mean, log10 nM": "4.80", "control signals": "5/9 (4.75)"}